Reference: US20060188895A1, “Rapid prognostic assay for malignancies treated with epidermal growth factor receptor” (The Johns Hopkins University, priority 2004, published 2006)

System: A431 cells (c-fos mRNA)
Experiment: in vitro c-fos mRNA expression by quantitative RT-PCR
Format: cell-based, human

COc1cc2ncnc(Nc3ccc(F)c(Cl)c3)c2cc1OCCCN1CCOCC1 [gefitinib]
effect on EGF-induced c-fos increment (10 μM, 1-hour exposure, with EGF): abrogated | c-fos, time and dose-dependency experiment (0.1 and 1 μM, 24, 48 and 120 hours): decreased c-fos effectively | c-fos after longer exposure (24-hour exposure): lasting c-fos downregulation | effect of drug alone on c-fos levels (without EGF, 1 hour): decreased c-fos levels
